Test results: US6406866B1 (priority 1993, dated 2002)

Protein sequences, listed by entry. Tags and fused reporters are not part of them. Lines headed by an entry give the natural chain unless they say otherwise; changes in a name come on top.
UniProt P35370: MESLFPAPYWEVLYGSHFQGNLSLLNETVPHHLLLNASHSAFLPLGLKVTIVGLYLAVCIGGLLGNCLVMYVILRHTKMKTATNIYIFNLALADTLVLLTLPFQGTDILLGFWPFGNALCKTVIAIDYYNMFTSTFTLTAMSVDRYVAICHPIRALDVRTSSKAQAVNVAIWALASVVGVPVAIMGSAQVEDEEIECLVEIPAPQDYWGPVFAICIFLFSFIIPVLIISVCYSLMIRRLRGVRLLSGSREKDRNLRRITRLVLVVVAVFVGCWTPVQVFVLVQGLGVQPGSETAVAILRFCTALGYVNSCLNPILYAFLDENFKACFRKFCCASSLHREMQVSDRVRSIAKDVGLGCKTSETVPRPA

Target: novel mammalian opioid receptor (MSOR, LC132) (Rattus norvegicus, UniProt P35370)
Conditions: membranes from transient (COS-7) and stable (Ltk-) transfectants, 120 min at 22° C.

CO[C@]12CC[C@@]3(C[C@@H]1C(C)(C)O)[C@H]1Cc4ccc(O)c5c4[C@@]3(CCN1CC1CC1)[C@H]2O5
specific binding of the radioactively-labeled opioid agonist or antagonist: no specific binding
